The target of test [1] is T1, 5-HT2A receptor (Homo sapiens, UniProt P28223). As to the kind of experiment: Affinity for 5-HT2A receptor binding sites, radioligand binding with [3H]ketanserin. The note with it: read-out: Ki 5-HT2A, rat cortex membranes (assay 2) or NIH3T3 h5-HT2A membranes (assay 3), table does not say which.
Test [2] concerns the target T1, 5-HT2A receptor. Kind of test: In vitro functional assay for 5-HT2 receptor (intracellular calcium, FLIPR), 5-HT2A. Type of test: cell-based. Conditions: same cell lines as receptor binding, read-out: pKb 5-HT2A (converted). The source says: The 5-HT2 receptors are linked to the Gq family of G proteins and to subsequent activation of phospholipase C, induction of phosphoinositide metabolism and to an increase in intracelular calcium concentration. The same cell lines as described in the previous section (receptor binding) were used for the FLIPR experiments.
On the technique in general: A change in cytosolic calcium serves as a functional read-out for many receptors and channels.

Counter-ions that a name gives are not always drawn.

Four compounds from patent publication US7598255B2 (Janssen Pharmaceutica NV, priority 2005, dated 2009) can be followed below.

As usually defined, the Ki is a measure of affinity in units of concentration, obtained from inhibition or displacement.

Take `CCC(C)c1nc2c(c(-c3ccc(F)cc3)n1)CNCC2` (centres unmarked) [Example 3, 2-sec-Butyl-4-(4-fluoro-phenyl)-5,6,7,8-tetrahydro-pyrido[4,3-d]pyrimidine hydrochloride]: the Ki at 5-HT2A receptor [1] came to 11 nM.

With `CC(C)Cc1nc2c(c(-c3ccc(F)cc3)n1)CNCC2` [Example 37, 4-(4-Fluoro-phenyl)-2-isobutyl-5,6,7,8-tetrahydro-pyrido[4,3-d]pyrimidine], on 5-HT2A receptor [1], the Ki is 40 nM.

As for `Cc1ccc(-c2nc(C3CCCC3)nc3c2CCNCC3)cc1` [Example 47, 2-Cyclopentyl-4-p-tolyl-6,7,8,9-tetrahydro-5H-pyrimido[4,5-d]azepine], the Ki on 5-HT2A receptor [1] came out at 2.5 nM.

Turning to `Fc1ccc(-c2nc(Cc3ccccc3)nc3c2CNCCC3)cc1` [Example 69, 2-Benzyl-4-(4-fluoro-phenyl)-6,7,8,9-tetrahydro-5H-1,3,6-triaza-benzocycloheptene hydrochloride], the Kb at 5-HT2A receptor [2] is 1000 nM. Also, the inhibition constant Ki on 5-HT2A receptor [1] came out at 140 nM.
